Patent publication US8975417B2, “Pyrazolopyrrolidine derivatives and their use in the treatment of disease” (Novartis AG, priority 2013, dated 2015)

Sequences of proteins named here, by UniProt entry; tags and fusion partners are left off. Residues count along the entry.
UniProt P25440, 60-472: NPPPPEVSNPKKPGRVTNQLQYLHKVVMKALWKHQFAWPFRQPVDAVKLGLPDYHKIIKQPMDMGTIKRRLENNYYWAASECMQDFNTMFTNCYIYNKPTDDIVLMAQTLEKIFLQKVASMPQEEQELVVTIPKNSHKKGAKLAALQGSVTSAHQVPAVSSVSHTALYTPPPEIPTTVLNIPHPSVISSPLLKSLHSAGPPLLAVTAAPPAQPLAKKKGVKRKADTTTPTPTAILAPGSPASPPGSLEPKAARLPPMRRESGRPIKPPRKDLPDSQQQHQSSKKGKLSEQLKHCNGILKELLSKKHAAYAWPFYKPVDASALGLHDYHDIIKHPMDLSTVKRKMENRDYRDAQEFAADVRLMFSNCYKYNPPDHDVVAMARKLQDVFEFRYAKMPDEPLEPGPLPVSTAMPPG
UniProt Q15059, 20-477: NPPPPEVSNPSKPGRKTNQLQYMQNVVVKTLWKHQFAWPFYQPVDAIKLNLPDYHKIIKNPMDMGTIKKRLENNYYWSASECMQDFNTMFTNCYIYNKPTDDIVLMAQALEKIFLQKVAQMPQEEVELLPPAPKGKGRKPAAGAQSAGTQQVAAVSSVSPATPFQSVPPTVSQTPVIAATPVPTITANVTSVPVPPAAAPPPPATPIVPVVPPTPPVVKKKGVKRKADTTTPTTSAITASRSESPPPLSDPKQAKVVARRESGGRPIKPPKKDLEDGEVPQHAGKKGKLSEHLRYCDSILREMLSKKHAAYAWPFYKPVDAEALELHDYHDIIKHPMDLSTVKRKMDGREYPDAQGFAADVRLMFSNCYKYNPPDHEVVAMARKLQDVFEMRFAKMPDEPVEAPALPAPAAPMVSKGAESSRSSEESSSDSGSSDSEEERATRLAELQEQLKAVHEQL

Key:
[1] = target: His-Brd2(60-472) (Homo sapiens (Human), UniProt P25440); experiment: TR-FRET in-vitro binding assay for BRD2; conditions: biochemical
Experimental: (§1) TR-FRET In-Vitro Binding Assays for BRD2, BRD3, and BRD4:
(§2) All assays were performed in 384-well microtiter plates. Each assay plate contained 8-point serial dilutions for 40 test compounds, plus 16 high- and 16 low controls. Liquid handling and incubation steps were done on an Innovadyne Nanodrop Express equipped with a robotic arm (Thermo CatX, Perkin Elmer/Caliper Twister II) and an incubator (Liconic STX40, Thermo Cytomat 2C450). The assay plates were prepared by addition of 50 nl per well of compound solution in 90% DMSO HummingBird nanodispenser (Zinsser Analytic). The assay was started by stepwise addition of 4.5 μL per well of bromo domain protein (50 mM HEPES, pH 7.5, 0.005% Tween20, 0.1% BSA, 50 mM NaCl, 45 nM His-Brd2(60-472) or 45 nM His-Brd3(20-477) or 45 nM His-Brd4(44-477) all proteins produced in-house) and 4.5 μL per well of peptide solution (50 mM HEPES, pH 7.5, 0.005% Tween20, 0.1% BSA, 50 mM NaCl, 60 nM acetyl-histone H4 (AcK 5, 8, 12, 16) (Biosyntan GmbH)). Reactions were incubated at 30° C. for 35 minutes. Subsequently 4.5 μL per well detection mix (50 mM HEPES, pH 7.5, 0.005% Tween20, 0.1% BSA, 50 mM NaCl, 3 nM Eu-labeled anti-His6 antibody, 21 nM streptavidin-allophycocyanin) were added. After minutes incubation at 30° C., plates were measured in a Perkin Elmer EnVision multilabel reader.
Test compounds were dissolved in DMSO (10 mM) and transferred into 1.4 mL flat bottom or V-shaped Matrix tubes carrying a unique 2D matrix. The stock solutions were stored at […] if not used immediately. For the test procedure the vials were defrosted and identified by a scanner whereby a working sheet was generated that guided the subsequent working steps. Compound dilutions were made in 96 well plates. This format enabled the assay of maximally […] at 8 concentrations (single points) including 4 reference compounds, if desired (known BET inhibitors from the prior art, for this and other assays of the type disclosed herein). The dilution protocol included the production of “pre-dilution plates”, “master plates” and “assay plates”. […]

[2] = target: His-Brd3(20-477) (Homo sapiens (Human), UniProt Q15059); experiment: TR-FRET in-vitro binding assay for BRD3; conditions: biochemical
Experimental: as §1
as §2, with “reader. […]” for “reader.”

| IC50 [1] | IC50 [2] | Compound |
| --- | --- | --- |
| 0.12 µM | 0.12 µM | COc1c2c(nn1C)C(=O)N(c1cc(C)c(=O)n(C)c1)C2c1ccc(Cl)cc1 (centres unmarked) [Example 77, 4-(4-chlorophenyl)-5-(1,5-dimethyl-6-oxo-1,6-dihydropyridin-3-yl)-3-methoxy-2-methyl-4,5-dihydropyrrolo[3,4-c]pyrazol-6(2H)-one] |
| 0.012 µM | < 0.011 µM | Cc1nn(C2CC2)c2c1[C@@H](c1ccc(Cl)cc1)N(c1cc(C)c3nnc(C)n3n1)C2=O [Example 122, (R)-4-(4-chlorophenyl)-1-cyclopropyl-5-(3,8-dimethyl-[1,2,4]triazolo[4,3-b]-pyridazin-6-yl)-3-methyl-4,5-dihydropyrrolo[3,4-c]pyrazol-6(1H)-one] |

| Compound | IC50 [1] | IC50 [2] |
| --- | --- | --- |
| Cc1cc(N2C(=O)c3c(c(C4CC4)nn3C)[C@H]2c2ccc(Cl)cc2)cn2c(C)nnc12 [Example 164, (R)-4-(4-chlorophenyl)-3-cyclopropyl-5-(3,8-dimethyl-[1,2,4]triazolo[4,3-a]pyridin-6-yl)-1-methyl-4,5-dihydropyrrolo[3,4-c]pyrazol-6(1H)-one] | 0.02 µM |  |
